Molecules are shown by their SMILES.

Chains of the proteins cited; added tags and fusions are not shown. Residues count along the entry.
UniProt P28074, 60-263 limits assumed: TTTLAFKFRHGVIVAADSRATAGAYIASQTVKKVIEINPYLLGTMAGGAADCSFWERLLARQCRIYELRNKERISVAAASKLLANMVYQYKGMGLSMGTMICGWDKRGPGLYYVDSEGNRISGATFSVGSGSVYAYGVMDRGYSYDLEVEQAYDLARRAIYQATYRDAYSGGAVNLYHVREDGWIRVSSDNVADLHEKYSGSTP

This test concerns the target Proteasome chymotrypsin-like activity (S26 protein from RPMI8226 cells) (Homo sapiens, UniProt P28074). Format: biochemical. The conditions noted are these: S26 protein from RPMI8226 cell extract 2 ug/well, substrate 20 uM, 37° C., 90 minutes; read-out: Proteasome chymotrypsin-like activity inhibition IC50. As to the method:
The abilities to inhibit the proteasome activity of the compounds described in the Examples of the present invention and boronic acid drugs were evaluated as follows.
RPMI8226 cells, which is a multiple myeloma cell line, were cultured and then separated by a centrifuge, and washed twice with phosphate buffered saline (PBS). 20 mM of a tris-HCl (pH 8.0) buffer solution was added to the washed cells, and the cells were disrupted by a homogenizer and centrifuged to obtain S26 protein from the supernatant. Suc-Leu-Leu-Val-Tyr-AMC, for a fluorogenic substrate for the chymotrypsin-like activity of the proteasome, and Z-Leu-Leu-Glu-AMC, for a fluorogenic substrate for the caspase-like activity, were purchased from Calbiochem, EMD Millipore and used. […] The fluorescence of the fluorogenic substrate was measured by FlexStation II Fluorometer (Molecular Devices). The fluorescence inhibited by the compound diluted at each concentration was measured as the relative percentage value for the amount obtained from the treatment only with the S26 protein and the fluorogenic substrate. […]

Broadly, the IC50 is the point on the concentration scale where inhibition reaches its midpoint. With `CC(C)C[C@H](NC(=O)CNC(=O)c1cc(Cl)ccc1Cl)B(O)O` [ixazomib], the IC50 came out at 4 nM.

The values above are taken from US12570675B2, “Boronic acid compounds” (LG CHEM, LTD., priority 2020, dated 2026).
